Assay results from patent publication US8716295B2, “Fluoroquinolone derivatives or sulfonamide moiety-containing compounds as inhibitors of tyrosyl-dnaphosphodiesterase (TDP1)” (priority 2010, dated 2014).

By UniProt entry, the sequences of proteins in these tests, tags left out.
UniProt Q9NUW8, whole entry: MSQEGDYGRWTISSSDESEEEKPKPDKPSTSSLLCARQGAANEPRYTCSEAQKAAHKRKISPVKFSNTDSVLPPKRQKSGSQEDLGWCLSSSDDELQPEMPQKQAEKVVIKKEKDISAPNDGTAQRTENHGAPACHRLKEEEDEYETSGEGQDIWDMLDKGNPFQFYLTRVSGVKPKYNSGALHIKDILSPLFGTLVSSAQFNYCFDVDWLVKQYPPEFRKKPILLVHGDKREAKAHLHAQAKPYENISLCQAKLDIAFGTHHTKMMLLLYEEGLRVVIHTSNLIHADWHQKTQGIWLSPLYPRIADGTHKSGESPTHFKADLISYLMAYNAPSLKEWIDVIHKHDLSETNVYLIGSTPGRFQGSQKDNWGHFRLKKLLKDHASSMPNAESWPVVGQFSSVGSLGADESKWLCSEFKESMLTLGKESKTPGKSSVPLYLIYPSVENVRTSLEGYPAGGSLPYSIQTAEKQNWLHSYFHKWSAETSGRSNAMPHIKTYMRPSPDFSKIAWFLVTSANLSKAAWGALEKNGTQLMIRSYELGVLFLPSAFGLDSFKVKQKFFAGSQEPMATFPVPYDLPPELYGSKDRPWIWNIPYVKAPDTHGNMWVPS

Target: recombinant Tdp1 (Homo sapiens, UniProt Q9NUW8)
Assay: Gel-based Tdp1 catalytic activity inhibition assay (5'-32P-labeled N14Y DNA substrate, denaturing PAGE)
Format: biochemical

## COc1c(N2CCN(CNc3ccc(S(=O)(=O)Nc4nc(C)cc(C)n4)cc3)C(C)C2)c(F)cc2c(=O)c(C(=O)O)cn(C3CC3)c12 (stereo not shown)
  Tdp1 inhibitory activity (in words): nanomolar range
